# Test results from PubChem BioAssay AID504842 (National Center for Advancing Translational Sciences (NCATS), 2011).
# The list shows a part of the results, in another mix than the full data. The source made the active and inactive calls. Calls come from the whole dose curve; as a rule, active = well fitted inhibition curve with a large enough effect; inconclusive = small, poorly fitted or top-dose-only effect; inactive = flat fitted curve, though single readings scatter.
# System: Chaperonin Mm-Cpn (Methanococcus maripaludis)
# Test: Inhibitors of TCP-1 ring complex (TRiC) of Methanococcus maripaludis (MmCpn): qHTS; note: nearly all actives have a fitted effect of over 80% in size
# Conditions: purified Mm-Cpn ATPase, ADP Transcreener TR-FRET; at 76.9 µM (top of the series)
# Text: The eukaryotic chaperonin TRiC (for TCP-1 ring complex) is an essential and conserved chaperone required for the folding and activation of 10-15% of the proteins encoded by the human genome. […] The TRiC complex consist of two stacked 7-9 membered rings, each containing a central cavity. Substrates are folded within the cavity in an ATP-dependent manner. TRiC is a complex of eight different, essential proteins. As each of the genes encoding the eight subunits is essential for cell viability and no protocol has been developed to over-express this enzyme to high levels. That is why several groups studying the TRiC chaperonin have turned to the archaeal homolog of TRiC, Methanococcus maripaludis (Mm-CPN), and have used this enzyme as a model system for the study of the type II chaperonin family. Small molecule inhibitors of the Mm-CPN enzyme would be extremely useful to study the mechanism of chaperonin activity. Importantly, TRiC and Mm-CPN both require ATP hydrolysis for function. Furthermore, the ATP binding sites are highly conserved among these type II chaperonins. This provides us with an easy, well tested and straightforward assay to identify inhibitors of chaperonin activity. The Mm-CPN assay was developed in 1536-well plate format using the HTRF Transcreener ADP assay kit (Cisbio, Bedford, MA). This assay applied the time resolved fluorescence resonance energy transfer (TR-FRET) principle. ATP in the presence of Mm-CPN is converted to ADP + Pi. An antibody labeled with Eu3+-Cryptate specific and bound to ADP labeled with […] (d2) competes with the unlabeled ADP generated by Mm-CPN. The resulting TR-FRET signal is inversely proportional to the concentration of ADP in the sample. In this assay a reduction in TR-FRET signal is observed with ATP turnover. NIH Chemical Genomics Center [NCGC] NIH Molecular Libraries Probe Centers Network [MLPCN] MLPCN Grant: DA030554-01A1 Assay Submitter (PI): Judith Frydman, Stanford University
# Purified Mm-CPN was supplied by the laboratory of Dr. Judith Frydman. Protein samples were stored at -80C as single use aliquots. Protein was thawed in ambient temperature water bath and placed on ice once thawed. Buffer was prepared fresh day of screen. The buffer composition below was used to prepare the working solution of the Mm-CPN protein and ATP substrate. The buffer is comprised of 30 mM TRIS pH 7.4, 100mM KCl, 5mM MgCl2, and 1mM DTT. A final concentration of 25nM Mm-CPN and 10uM ATP per well were used in the screen. Instructions according to the manufacturer were followed for the ADP Transcreener kit. Used 1536 well Greiner white, medium binding (MB), solid bottom plates. Plates were read on the PerkinElmer EnVision plate reader using Excitation = 320 nm and Emission = […], 665 nm. Protocol- 1.Dispense 1.5ul per well of working [Mm-CPN] = 50nM (or 75 ng / well) 2.Spin plate at 1000 rpm for 30 seconds 3.23nl of compound transferred per well 4.Incubate at 37degC for 10 minutes 5.Dispense 1.5ul per well of working [ATP] = 20uM 6.Incubate at 37degC for 30 minutes 7.Dispense 3ul per well of Anti-ADP Cryptate / ADP-d2 mix (prepared as instructed by Cisbio) 8.Incubate at ambient for 30 minutes 9.Read using EnVision
# % is set by controls: 0 for no effect and ±100 for the full control effect.
row,SMILES,"activity, negative = inhibition"
1,CCOC(=O)N1CCC(Nc2cccc(C)c2)CC1,inactive: -1.75%
2,COc1cc(C(=O)NCC2(N(C)C)CCCCC2)ccc1OC(F)F,inactive: -0.271%
3,Cc1ccc(OCC(C)C)c(CN(CCCl)CCCl)c1,inactive: 0.191%
4,CCCCOc1ccc(C(=O)NCC2(N3CCOCC3)CCCCC2)cc1,inactive: 0.173%
5,O=C(NCC1(N2CCCCC2)CCCCC1)c1ccc(F)cc1,inactive: -1.24%
6,CCOC(=O)N1CCC(Nc2ccc(F)cc2)CC1,inactive: -10.8%
7,COc1ccc(NC2CCN(CCc3ccccc3)CC2)c(OC)c1,inactive: 0.217%
8,CCOc1ccc(C)cc1CN(CCCl)CCCl,inactive: 0.0141%
9,O=C(NCC1(N2CCCCC2)CCCCC1)c1ccc(Cl)s1,inactive: 0.0838%
10,N#CC1(Nc2ccccc2)CCN(Cc2ccccc2)CC1,inactive: 2.08%
11,O=C(OC1CN2CCC1CC2)C1c2ccccc2Oc2ccccc21 (stereo not drawn),inactive: 2.72%
12,COc1ccc(Cl)cc1C(=O)NCC1(N2CCOCC2)CCCCC1,inactive: 1.74%
13,CCOC(=O)N1CCC(Nc2ccc(OC)cc2)CC1,inactive: -2.59%
14,O=C(NCC1(N2CCCCC2)CCCCC1)c1ccc(Cl)nc1,inactive: 3.7%
15,Cc1cc(C)cc(N(C(=O)c2ccccc2)C2CCN(C(=O)OC(C)(C)C)CC2)c1,inactive: 3.02%
16,O=C(NCC1(N2CCOCC2)CCCCC1)c1cc2ccccc2o1,inactive: -1.93%
17,CSc1ccccc1C(=O)NCC1(N2CCCCC2)CCCCC1,inactive: -0.776%
18,COc1ccc(C(=O)NCC2(N3CCCCC3)CCCCC2)cc1,inactive: -1.06%
19,CC(C)(C)OC(=O)N1CCC(N(C(=O)c2ccccc2)c2ccc(F)cc2)CC1,inactive: 0.884%
20,COc1ccc(C(=O)NCC2(N3CCCCC3)CCCCC2)c(OC)c1OC,inactive: 0.342%
21,O=C(NCC1(N2CCCCC2)CCCCC1)c1ccc(=O)[nH]c1,inactive: 0.946%
22,O=C(NCC1(N2CCCCC2)CCCCC1)c1cccs1,inactive: -1.14%
23,CCCOc1ccc(C(=O)NCC2(N(C)C)CCCCC2)cc1OC,inactive: 1.28%
24,O=C(OC1CN2CCC1CC2)c1ccc([N+](=O)[O-])cc1 (stereo not drawn),inactive: 0.231%
25,O=C(NCC1(N2CCCCC2)CCCCC1)c1cncc(Br)c1,inactive: -0.862%

row,SMILES,"activity, negative = inhibition"
1,COc1cc(OC)c(C(=O)NCC2(N(C)C)CCCCC2)cc1OC,inactive: -0.169%
2,O=C(NCC1(N2CCOCC2)CCCCC1)c1cc(F)c(F)cc1Cl,inactive: -1%
3,CC(C)c1ccc(NC2CCN(C(=O)OC(C)(C)C)CC2)cc1,inactive: 0.271%
4,COc1ccc(CN(CCCl)CCCl)cc1Cl,inactive: 2.7%
5,CN(C)c1cccc(C(=O)NCC2(N3CCCCC3)CCCCC2)c1,inactive: 1.25%
6,O=[N+]([O-])c1cc([N+](=O)[O-])c(OC2CCCCC2O)c([N+](=O)[O-])c1 (stereo not drawn),inactive: -2.64%
7,O=C(NCC1(N2CCOCC2)CCCCC1)c1cc(=O)[nH]c2ccccc12,inactive: -5.17%
8,COc1cc(C(=O)NCC2(N3CCCCC3)CCCCC2)ccc1OC(F)F,inactive: -0.0781%
9,CC(C)c1ccc(C(=O)NCC2(N3CCOCC3)CCCCC2)cc1,inactive: 1.43%
10,COc1ccc(NC2CCN(C(=O)OC(C)(C)C)CC2)cc1,inactive: -0.771%
11,CN1CCN(CCOC(=O)C(O)(c2ccccc2)c2ccccc2)CC1,inactive: -1.21%
12,O=[N+]([O-])c1cc([N+](=O)[O-])c(NCC2CCS(=O)(=O)C2)c([N+](=O)[O-])c1 (stereo not drawn),inactive: 0.881%
13,O=C(NCC1(N2CCCCC2)CCCCC1)c1cccc(C(F)(F)F)c1,inactive: -1.41%
14,CCN1CCC(Nc2ccc(Cl)cc2)CC1,inactive: 0.712%
15,N#CC1(Nc2ccccc2)CCN(CCc2ccccc2)CC1,inactive: 0.934%
16,O=C(NCC1(N2CCCCC2)CCCCC1)c1cccc([N+](=O)[O-])c1,inactive: -1.88%
17,CSc1ccc(C(=O)NCC2(N3CCOCC3)CCCCC2)cc1,inactive: -0.36%
18,O=C(NCC1(N2CCCCC2)CCCCC1)c1ccc(OC(F)F)cc1,inactive: 0.0103%
19,CN(C)C1(CNC(=O)c2cccc(C#N)c2)CCCCC1,inactive: 0.898%
20,c1ccc(CN2CCC(Nc3ccccc3)CC2)cc1,inactive: -0.326%
21,CCCN1CCC(Nc2cc(OC)cc(OC)c2)CC1,inactive: 0.645%
22,CCOC(=O)C(CC)C1=NC(C)(C)Cc2ccccc21.O=[N+]([O-])c1cc([N+](=O)[O-])c(O)c([N+](=O)[O-])c1 (stereo not drawn),inactive: 1.6%
23,N#Cc1ccc(C(=O)NCC2(N3CCCCC3)CCCCC2)cc1,inactive: -1.98%
24,CC(C)(C)OC(=O)N1CCC(N(C(=O)c2ccccc2)c2ccc(Cl)cc2)CC1,inactive: -0.17%
25,CCc1cc(C(=O)NCC2(N3CCCCC3)CCCCC2)sc1C,inactive: -0.498%

row,SMILES,"activity, negative = inhibition"
1,O=C(OC1CN2CCC1CC2)C1c2ccccc2C=Cc2ccccc21 (stereo not drawn),inactive: 2.14%
2,O=C(O)c1cccc(Nc2c([N+](=O)[O-])cc([N+](=O)[O-])cc2[N+](=O)[O-])c1,inactive: 0.883%
3,CCOC(=O)N1CCC(Nc2ccc(C)cc2)CC1,inactive: 0.0546%
4,N/C(=N\O)c1c(N)no[n+]1[O-],inactive: 1.02%
5,COc1ccc(C(=O)NCC2(N3CCOCC3)CCCCC2)cc1OC,inactive: -1.51%
6,COc1cc(C(=O)NCC2(N3CCOCC3)CCCCC2)cc(OC)c1C,inactive: 1.56%
7,O=C(NCC1(N2CCOCC2)CCCCC1)c1cc(Br)ccc1Cl,inactive: 0.97%
8,CN1CCC(Nc2ccc(Cl)cc2)CC1,inactive: 0.503%
9,CCCOc1ccc(C)cc1CN(CCCl)CCCl,inactive: -0.569%
10,COc1cccc(C(=O)N(c2cc(C)cc(C)c2)C2CCN(C(=O)OC(C)(C)C)CC2)c1,inactive: 1.3%
11,COc1cc(OC)cc(C(=O)NCC2(N3CCOCC3)CCCCC2)c1,inactive: -0.0752%
12,CCC(CO)(C(=O)OC1CN2CCC1CC2)c1ccccc1 (stereo not drawn),inactive: -1.1%
13,CC(C)(C)OC(=O)N1CCC(Nc2ccccc2)CC1,inactive: -5.26%
14,O=C(O)C1(Nc2ccccc2)CCN(Cc2ccccc2)CC1,inactive: -0.947%
15,CCCOc1ccc(C(=O)NCC2(N(C)C)CCCCC2)cc1,inactive: -0.163%
16,CCOc1ncccc1C(=O)NCC1(N2CCOCC2)CCCCC1,inactive: 1.17%
17,CN1CCC(Nc2ccc(F)c(Cl)c2)CC1,inactive: 0.607%
18,O=C(NCC1(N2CCCCC2)CCCCC1)c1ccco1,inactive: -7.88%
19,CN(C)c1ccc(C(=O)NCC2(N3CCCCC3)CCCCC2)cc1,inactive: -5.09%
20,CCN1CCC(Nc2cccc(F)c2)CC1,inactive: -2.02%
21,Cc1ccc(C(=O)NCC2(N3CCCCC3)CCCCC2)o1,inactive: -1.22%
22,Fc1ccccc1NC1CCN(Cc2ccccc2)CC1,inactive: 1.58%
23,COc1cc(OC)cc(C(=O)NCC2(N3CCCCC3)CCCCC2)c1,inactive: -0.286%
